Experimental findings from US4710564A, “Anthracycline compounds” (Microbial Chemistry Research Foundation, priority 1985, dated 1987) are described below.

Values after ≈ are worked out from the molar mass of the structure shown.

Data set [1] has as its system sensitive P 388 leukemia cells (P 388/S). Kind of data set: cells. Type of data set: cell-based. The settings on record: for IC50: Mus musculus, P388, 48 h, read-out: IC50 P388/S.
The test system of another data set is heart. The settings on record: hamster, in vivo.

In the case of `CCC1(O)CC(OC2CC(N3CCOCC3)C(O)C(C)O2)c2c(O)c3c(c(O)c2C1O)C(=O)c1cccc(O)c1C3=O` (stereo not drawn) [3'-deamino-3'-(4-morpholinyl)-R20X2], in data set [1], the IC50 was determined as 0.009 µg/mL (≈ 0.0154 µM).
Take `CCC1(O)Cc2c(O)c3c(c(O)c2C(OC2CC(N4CCOCC4)C(O)C(C)O2)C1)C(=O)c1c(O)cccc1C3=O` (stereo not drawn) [3'-deamino-3'-(4-morpholinyl)-R20X]: in data set [1], the IC50 stood at 0.033 µg/mL (≈ 0.0579 µM).
Turning to `CCC1(O)Cc2cc3c(c(O)c2C(OC2CC(N4CCOCC4)C(O)C(C)O2)C1)C(=O)c1c(O)cccc1C3=O` (stereo not drawn) [3'-deamino-3'-(4-morpholinyl)-R20Y5], the IC50 in data set [1] is 0.1 µg/mL (≈ 0.181 µM).
On to `CC[C@@]1(O)C[C@H](O[C@H]2C[C@H](N(C)C)[C@H](O[C@H]3C[C@H](O)[C@H](O[C@H]4CCC(=O)[C@H](C)O4)[C@H](C)O3)[C@H](C)O2)c2c(cc3c(c2O)C(=O)c2c(O)cccc2C3=O)[C@H]1C(=O)OC` [Aclacinomycin, reference compound], for which, in data set [1], the “IC50 P388/S” value was 0.013 µg/mL (≈ 0.016 µM).
Regarding `COc1cccc2c1C(=O)c1c(O)c3c(c(O)c1C2=O)C[C@@](O)(C(=O)CO)C[C@@H]3O[C@H]1C[C@H](N)[C@H](O)[C@H](C)O1` [Adriamycin, reference compound], the “toxicity to the heart at dosage level where antitumor activity starts” value with heart is reported as “toxic to the heart”. Moreover, the IC50 in data set [1] was found to be 0.012 µg/mL (≈ 0.0221 µM).
